Assay outcomes (PubChem)
ClpP mod: qHTS Assay for Activators of ClpP; actives 1.9% (n = 340,000); ATP-dependent Clp protease proteolytic subunit (Bacillus subtilis (strain 168)), P80244; Potency, µM (titrated, usually from 57.5 µM); purified B. subtilis ClpP, FRET peptide cleavage, 20 min; active means well fitted falling curve with a large enough effect; inconclusive means small, poorly fitted or top-dose-only effect; inactive means no such curve, though single readings can be large or run the other way; further: the source files actives as falling curves though it sought activators and does not explain the sign; nearly all actives have a fitted effect of over 65% in size
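Purified B. subtilis ClpP, 10 microg/mL final in Tris/HCl pH8 with KCl, BSA, glycerol and Tween-20, cleaved an Abz/nitrotyrosine-quenched decapeptide. Fluorescence (ex 320, em 430) was read at 0 and 20 min at room temperature. Delta was normalized to 5.8 microM ADEP and DMSO/no-enzyme controls.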
miR-21 reporter: raises the signal of a miR-21 reporter. Potency, µM (highest dose often 38.3 µM). 340,000 tested, under 10 active. HeLa miR-21 FLuc reporter, luciferase, 48 h; active = well fitted rising curve with a large enough effect; inconclusive = small, poorly fitted or top-dose-only effect; inactive = no such curve, though single readings can be large or run the other way;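 further: miR-21 action dims this reporter so a rising signal means less miR-21 action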
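Using DMEM plus 10% FBS, HeLa miR-21-FLuc cells are incubated with test compounds (final up to about 40uM) for 48 hours; firefly luciferase signal is then imaged following reagent-mediated lysis.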
Nrf2 activator: activates Nrf2 signaling. AID 624171. Potency, µM (top dose mostly 46.1 µM), usual class: activators. actives 0.31% (n = 410,000). AREc32 ARE-luciferase reporter (MCF7-derived line), luminescence, 24 h; further: nearly all actives have a fitted effect of over 65% in size
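AREc32 cells carrying an ARE-driven firefly luciferase, 1000 cells/well in OPTI-MEM with 5% FBS, dosed after overnight attachment and incubated 24 hr at 37 deg C. Steady-Glo luminescence read after 30 min at RT.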
Nrf2 inh: Nrf2 pathway inhibition; A549 ARE-Fluc reporter, luciferase luminescence, 18-24 h; Potency, µM (highest dose often 46 µM), actives largely listed as inhibitors; actives 2.1% (n = 360,000); further: nearly all actives have a fitted effect of over 60% in size
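In this cell-based qHTS, ARE-driven firefly luciferase in A549 cells reports Nrf2 activity; the luminescent signal after BugLite lysis is the measured value, with a prior CellTiter-Fluor read for cell health.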
A549 tox: kills or reduces viability of A549 cells in Nrf2 counter-screen | A549 ARE-Fluc cells, CellTiter-Fluor viability, 18-24 h | AID 504648 | actives 0.16% (n = 390,000) | Potency, µM (doses to about 46 µM), hits mostly inhibitors
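A549 ARE_Fluc cells in 5% FBS OPTI-MEM were exposed to compounds in concentration-response for 18-24 h at 37 deg C. Viability was read by CellTiter-Fluor fluorescence (Ex 405/Em 525) after 30 min, before the luciferase read.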
TCR act: activators of T cell receptors; primary human leukocytes, anti-CD3, IL-2 HTRF, 48 h; Potency, µM (series often up to 9.22 µM), usual class: activators; 330,000 tested, under 10 active
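Activity was scored as IL-2 release from primary human leukocytes given only a TCR signal (a-CD3 beads) plus compound for 48 hr. Detection used a two-antibody HTRF format read at 665nm.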
Of the large screens only hits and unclear results are named; the others gave an inactive call. Hits are enriched below; roughly 3.7% of the tested compounds scored in any of these assays. Unless noted, the call rests on the fitted dose curve; in most records, active means well fitted curve in the direction sought with a large enough effect; inconclusive means small, poorly fitted or top-dose-only effect, or another doubt; inactive means no such curve, though single readings can be large; an effect the other way counts as inactive or inconclusive.

COc1ccc(C)cc1NC(=O)C(OC(=O)CNC(=O)c1ccccc1)c1ccccc1 (stereo unspecified)	none (no result: ClpP mod, miR-21 reporter, Nrf2 activator, TCR act)
CCNC(=O)C1(C)CCCN(Cc2csc3ccccc23)C1 (stereo unspecified)	none (no result: miR-21 reporter, Nrf2 inh, A549 tox, TCR act)
C/C(=N\NC(=O)c1ccc(C)cc1C)c1ccc2c(c1)Nc1ccccc1S2	Nrf2 inh inconclusive
CC(=O)c1ccc2c(c1)Nc1ccccc1S2	ClpP mod 31.6µM
Cc1ccc(NC(=O)c2ccc3c(c2)NC(=O)c2ccccc2S3)cc1	miR-21 reporter inconclusive, Nrf2 inh 16.4µM, A549 tox inconclusive (no result: TCR act)
CC(=O)NC(Cc1ccc(O)cc1)C(=O)NCC(N)C(=O)c1ccccc1 (stereo unspecified)	none (no result: miR-21 reporter, Nrf2 activator, Nrf2 inh, A549 tox, TCR act)
COc1ccc(CCn2c(N)c(C#N)c3nc4ccccc4nc32)cc1OC	ClpP mod inconclusive (no result: Nrf2 inh)
COc1ccc(Cn2c(N)c(C#N)c3nc4ccccc4nc32)cc1OC	ClpP mod 14.1µM
N#Cc1c(N)n(CCCN2CCOCC2)c2nc3ccccc3nc12	ClpP mod 4.47µM, Nrf2 inh inconclusive, A549 tox inconclusive
COc1ccccc1CCn1c(N)c(C#N)c2nc3ccccc3nc21	ClpP mod 31.6µM, Nrf2 inh inconclusive, A549 tox inconclusive
CCCCCn1c(N)c(C#N)c2nc3ccccc3nc21	ClpP mod inconclusive
CC(C(=O)NC1CCCCC1)N(Cc1ccccc1)C(=O)c1snc(C(N)=O)c1N (stereo unspecified)	none
Cc1cc(S(=O)(=O)Nc2cc3c(cc2Cl)n(C)c(=O)c(=O)n3C)ccc1F	Nrf2 inh inconclusive (no result: TCR act)
CCOC(=O)c1cc(-c2ccccc2)n(CC(=O)NC2CCC(C)CC2)c1C (stereo unspecified)	none (no result: Nrf2 inh, TCR act)
O=C(O)COc1ccc2nsnc2c1Cl	ClpP mod 14.1µM
CN(Cc1ccccc1Cl)C(=O)CCNC(=O)c1ccco1	none (no result: miR-21 reporter)
NC(=O)c1cc([N+](=O)[O-])ccc1NCc1ccc(F)cc1	none (no result: miR-21 reporter)
NC(=O)c1cc([N+](=O)[O-])ccc1NCc1ccc(N)cc1	Nrf2 inh 9.2µM, A549 tox inconclusive (no result: miR-21 reporter)
CCCCCN(C(=O)CCC(=O)OC(C)C(=O)Nc1ccccc1C)c1c(N)n(CCCC)c(=O)[nH]c1=O (stereo unspecified)	none (no result: miR-21 reporter, Nrf2 inh, A549 tox, TCR act)
COc1cc2cc(CN(CCCO)S(=O)(=O)c3ccccc3Cl)c(=O)[nH]c2cc1OC	ClpP mod inconclusive
O=C(c1ccccc1)N(CCO)Cc1cc2cc3c(cc2[nH]c1=O)OCCO3	none (no result: ClpP mod)
COc1cc2cc(CN(CCCO)S(=O)(=O)c3ccccc3)c(=O)[nH]c2cc1OC	ClpP mod 12.6µM
COc1cc2cc(CN(CCO)S(=O)(=O)c3ccccc3Cl)c(=O)[nH]c2cc1OC	ClpP mod 28.2µM, A549 tox inconclusive (no result: Nrf2 inh)
O=c1[nH]c2cc3c(cc2cc1CN(CCO)S(=O)(=O)c1ccccc1Cl)OCCO3	ClpP mod 28.2µM
O=C1C=C(NCCc2cc(Br)c(O)c(Br)c2)C(=O)c2ncccc21	Nrf2 activator inconclusive, Nrf2 inh inconclusive, A549 tox 23.1µM (no result: miR-21 reporter)
CC1=C/C(=C(\c2cc(C)c(O)c(Br)c2)c2ccccc2S(=O)(=O)O)C=C(Br)C1=O	Nrf2 inh inconclusive, A549 tox 16.4µM
Cc1cc(C(=O)c2ccccc2)cc(C)c1O	none (no result: miR-21 reporter)
Cc1cc(-c2ccc(C)c(S(=O)(=O)N3CCCC(C)C3)c2)on1 (stereo unspecified)	Nrf2 inh inconclusive (no result: TCR act)
Cc1c(NC(=O)COC(=O)c2ccc[nH]c2=O)c(=O)n(-c2ccccc2)n1C	ClpP mod 17.8µM
Cc1c(NC(=O)COC(=O)c2cc(-c3ccc(-c4ccccc4)cc3)nc3ccccc23)c(=O)n(-c2ccccc2)n1C	ClpP mod 10µM, Nrf2 inh inconclusive
O=C(CCc1nc(-c2ccccc2)c(-c2ccccc2)o1)OCc1ccc(Cl)cc1	ClpP mod 31.6µM (no result: Nrf2 inh)
O=C(CCc1nc(-c2ccccc2)c(-c2ccccc2)o1)OCc1ccc(Br)cc1	ClpP mod 28.2µM
